{
  "source": "patent US20110077263A1",
  "about": "“Methods and Compositions of Toll-Like Receptor (TLR) Agonists” (priority 2009, published 2011)",
  "key": {"human LC": {"test_system": "human LC", "assay": "activation of LC from healthy donors and CIN/HIV patients, planned", "type": "cell-based"}, "LC [1]": {"test_system": "LC", "conditions": "Burns et al. 2000; Suzuki et al. 2000; cited from earlier work"}, "LC [2]": {"test_system": "LC", "conditions": "allogenic MLR; Burns et al. 2000; cited from earlier work"}, "cells": {"test_system": "cells", "conditions": "30 μM used in the assays"}},
  "data": [
    {"smiles": "CC(C)Cn1cnc2c(N)nc3ccccc3c21", "note": "[imiquimod]", "values": [
      {"measurement": "phenotypic and functional activation of human LC from CIN/HIV patients", "setting": "human LC", "result": "not"},
      {"measurement": "phenotypic and functional activation of LC", "setting": "LC [1]", "result": "do not phenotypically but functionally activate LC"},
      {"measurement": "allostimulatory capacity of treated LC (T cell proliferation)", "setting": "LC [2]", "result": "only modestly induced T cell proliferation"},
      {"measurement": "concentration toxic to the cells, relative to that used in the assays", "setting": "cells", "result": "2 -fold"}
    ]}
  ]
}
